The target in experiment [1] is GST-RNF40 (recombinant, full-length) (human). Briefly: pull-down.
Experiment [2] deals with GST-RNF20 (recombinant, full-length) (human). Briefly: pull-down.

We go through one molecule from article PMC10193940 (Proceedings of the National Academy of Sciences of the …, 2023).

B1: 6xHis-tagged RPA2 (natural protein)
chain: MWNSGFESYGSSSYGGAGGYTQSPGGFGSPAPSQAEKKSRARAQHIVPCTISQLLSATLVDEVFRIGNVEISQVTIVGIIRHAEKAPTNIVYKIDDMTAAPMDVRQWVDTDDTSSENTVVPPETYVKVAGHLRSFQNKKSLVAFKIMPLEDMNEFTTHILEVINAHMVLSKANSQPSAGRAPISNPGMSEAGNFGGNSFMPANGLTVAQNQVLNLIKACPRPEGLNFQDLKNQLKHMSVSSIKQAVDFLSNEGHIYSTVDDDHFKSTDAE
For B1, the binding result in experiment [1] and in experiment [2] was “binds” in each case.
